Assay [1] deals with T1, mMC4R (Mus musculus, UniProt P56450). The assay can be described thus: AlphaScreen cAMP assay, agonist activity, HEK293 cells stably expressing mMC4R. In kind it is cell-based. Particulars: Table 2; for EC50: read-out: mMC4R EC50, agonist. In general terms: Bead proximity is the source of the signal in Alpha formats.
For the next assay, the target named is mMC3R (Mus musculus, UniProt P33033). The assay can be described thus: AlphaScreen cAMP assay, agonist activity, HEK293 cells stably expressing mMC3R. Conditions: Table 2; for mMC3R percent maximal stimulatory response: at 100 μM; for EC50: read-out: mMC3R EC50, agonist. Type of assay: cell-based.
In another assay the target is mMC1R (Mus musculus, UniProt Q01727). The assay can be described thus: AlphaScreen cAMP assay, agonist activity, HEK293 cells stably expressing mMC1R. Conditions: for mMC1R percent maximal stimulatory response: at 100 μM, relative to NDP-MSH. Type of assay: cell-based.
A further assay addresses mMC5R (Mus musculus, UniProt P41149). The assay can be described thus: AlphaScreen cAMP assay, agonist and inverse agonist activity, HEK293 cells stably expressing mMC5R. Type of assay: cell-based. Conditions: for mMC5R Inverse Agonist, percent change from basal: no sigmoidal curve.
For assay [2], the target named is T1, mMC4R.
[3] abbreviates: read-out: mMC1R EC50, Table 2, agonist, >100,000 = no agonist activity up to 100 μM.

Protein sequences, listed by entry. Tags and fused reporters are not part of them.
UniProt P56450, whole entry: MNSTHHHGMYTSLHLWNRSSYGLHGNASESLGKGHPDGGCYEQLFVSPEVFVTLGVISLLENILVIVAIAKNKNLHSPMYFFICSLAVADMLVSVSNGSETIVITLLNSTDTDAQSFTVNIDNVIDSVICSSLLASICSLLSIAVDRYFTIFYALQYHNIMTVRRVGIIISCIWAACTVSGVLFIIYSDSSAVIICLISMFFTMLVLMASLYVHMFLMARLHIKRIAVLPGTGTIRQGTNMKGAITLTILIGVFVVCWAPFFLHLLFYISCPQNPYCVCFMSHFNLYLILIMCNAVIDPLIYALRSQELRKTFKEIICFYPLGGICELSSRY
UniProt P33033, whole entry: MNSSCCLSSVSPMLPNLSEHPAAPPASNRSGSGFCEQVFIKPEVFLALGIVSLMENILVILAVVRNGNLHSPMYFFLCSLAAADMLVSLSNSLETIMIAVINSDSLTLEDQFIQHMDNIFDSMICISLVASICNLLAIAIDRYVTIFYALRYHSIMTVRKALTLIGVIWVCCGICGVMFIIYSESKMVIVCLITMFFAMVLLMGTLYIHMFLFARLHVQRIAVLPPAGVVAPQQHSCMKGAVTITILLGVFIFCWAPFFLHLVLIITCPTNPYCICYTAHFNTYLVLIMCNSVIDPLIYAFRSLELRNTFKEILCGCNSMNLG
UniProt Q01727, whole entry: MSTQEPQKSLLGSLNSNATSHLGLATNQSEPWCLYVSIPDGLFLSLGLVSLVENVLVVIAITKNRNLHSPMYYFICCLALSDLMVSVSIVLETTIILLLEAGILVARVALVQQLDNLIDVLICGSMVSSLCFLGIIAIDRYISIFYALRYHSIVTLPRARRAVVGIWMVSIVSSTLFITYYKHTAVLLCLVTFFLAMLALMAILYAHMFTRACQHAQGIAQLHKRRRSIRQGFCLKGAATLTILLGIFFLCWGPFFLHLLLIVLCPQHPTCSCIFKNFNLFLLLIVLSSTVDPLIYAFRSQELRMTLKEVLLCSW
UniProt P41149, whole entry: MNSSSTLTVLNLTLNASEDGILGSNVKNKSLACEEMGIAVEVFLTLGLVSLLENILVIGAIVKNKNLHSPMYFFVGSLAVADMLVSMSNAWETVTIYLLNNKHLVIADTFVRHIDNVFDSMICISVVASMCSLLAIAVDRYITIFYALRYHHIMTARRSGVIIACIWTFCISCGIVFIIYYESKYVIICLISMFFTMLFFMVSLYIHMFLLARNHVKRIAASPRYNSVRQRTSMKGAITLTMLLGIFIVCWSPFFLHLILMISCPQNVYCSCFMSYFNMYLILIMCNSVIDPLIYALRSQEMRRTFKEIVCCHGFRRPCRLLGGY

The text below walks through data of patent publication US11332499B2, “Cyclic peptides and methods of use thereof” (Regents of the University of Minnesota, priority 2018, dated 2022).

The term EC50 denotes the concentration giving half of the maximal effect.

SMILES strings stand for the structures. Several values for one entry are separate records, joined by “and”; a condition that tells them apart may be missing. Equal values may be shown once. Read-outs that look alike come from different tables or passages of the source.

Take `CC(C)C[C@@H]1NC(=O)[C@H](CC(N)=O)NC(=O)[C@H](Cc2ccccc2)NC(=O)[C@H](Cc2ccccc2)NC(=O)[C@H](CCCNC(=N)N)NC(=O)[C@@H]2CCCN2C(=O)[C@H]2CCCN2C(=O)[C@H](Cc2ccccc2)NC1=O`: on mMC4R [1] (at 100 μM), the “mMC4R percent maximal stimulatory response” value is reported as 25% @. On mMC3R, the “mMC3R percent maximal stimulatory response” value came to 25% @. Further, the “mMC1R percent maximal stimulatory response” value at mMC1R (Table 2) was determined as 80% @ 100 μM. For the same compound, at mMC5R (read-out: mMC5R EC50, Table 2, agonist), the EC50 was over 100 µM.
For `N=C(N)NCCC[C@@H]1NC(=O)[C@@H]2CCCN2C(=O)[C@H]2CCCN2C(=O)[C@H](Cc2ccccc2)NC(=O)[C@H](CCCCN)NC(=O)[C@H](CC(N)=O)NC(=O)[C@H](Cc2ccccc2)NC(=O)[C@H](Cc2ccccc2)NC1=O`, at mMC4R [2], the selectivity ratio was 250. In addition, the EC50 on mMC4R [1] was over 100 µM. Further, the “mMC3R percent maximal stimulatory response” value on mMC3R is on record as 45% @. For the same compound, the “mMC1R percent maximal stimulatory response” value at mMC1R (Table 2) is listed as 60% @ 100 μM. Moreover, at mMC5R (Table 2, at 100 μM), the “mMC5R percent maximal stimulatory response” value is recorded as 45% @.
Consider `N=C(N)NCCC[C@@H]1NC(=O)[C@@H]2CCCN2C(=O)[C@H]2CCCN2C(=O)[C@H](Cc2ccccc2)NC(=O)[C@H](CO)NC(=O)[C@H](CC(N)=O)NC(=O)[C@H](Cc2ccccc2)NC(=O)[C@H](Cc2ccccc2)NC1=O`, for which the selectivity ratio on mMC4R [2] is 7 and 8. Further, the EC50 on mMC4R [1], at mMC3R and at mMC1R (setting [3]) was over 100 µM in each case. Further, the “mMC5R Inverse Agonist, percent change from basal” value on mMC5R (Table 2, at 100 μM) is on record as -30% @.
Turning to `CCCC[C@@H]1NC(=O)[C@H](CO)NC(=O)[C@H](CCCNC(=N)N)NC(=O)[C@H](Cc2ccccc2)NC(=O)[C@H](Cc2ccccc2)NC(=O)[C@H](CCCNC(=N)N)NC(=O)[C@@H]2CCCN2C(=O)[C@H]2CCCN2C1=O`, the EC50 on mMC1R (read-out: Agonist mMC1R EC50, Table 7, >100,000 = not stimulated greater than 20% at 100 μM, tested form: TFA) is over 100 µM; at mMC5R (read-out: Inverse Agonist mMC5R EC50, Table 7, tested form: TFA), over 100 µM.
Consider `N=C(N)NCCC[C@@H]1NC(=O)[C@@H]2CCCN2C(=O)[C@H]2CCCN2C(=O)[C@H](Cc2ccccc2)NC(=O)[C@H](CC(=O)O)NC(=O)[C@H](CC(N)=O)NC(=O)[C@H](Cc2ccccc2)NC(=O)[C@H](Cc2ccccc2)NC1=O`, for which, at mMC4R [2], the selectivity ratio amounted to 800. Moreover, the EC50 on mMC4R [1] and at mMC3R was over 100 µM throughout. The “mMC1R percent maximal stimulatory response” value on mMC1R (Table 2) is listed as 65% @ 100 μM. On mMC5R (Table 2, at 100 μM), the “mMC5R Inverse Agonist, percent change from basal” value was -25% @.
As for `N=C(N)NCCC[C@@H]1NC(=O)[C@@H]2CCCN2C(=O)[C@H]2CCCN2C(=O)[C@H](Cc2ccccc2)NC(=O)CNC(=O)[C@H](CC(N)=O)NC(=O)[C@H](Cc2ccccc2)NC(=O)[C@H](Cc2ccccc2)NC1=O`, the EC50 at mMC4R [1], on mMC3R and at mMC1R (setting [3]) was over 100 µM throughout. For the same compound, the “mMC5R Inverse Agonist, percent change from basal” value on mMC5R (Table 2, at 100 μM) is listed as -35% @.
